Values quoted from earlier work as cited in publication PMC5296733, “Functional Coupling of Human Microphysiology Systems: Intestine, Liver, Kidney Proximal Tubule, Blood-Brain Barrier and Skeletal Muscle” (Scientific Reports, 2017).

Settings: Table 2, clinical; cited from earlier work

SMILES: CC(C)(C(=O)O)c1ccc(C(O)CCCN2CCC(C(O)(c3ccccc3)c3ccccc3)CC2)cc1 (stereo not shown) [Fexofenadine, fexofenadine, reference compound]
- Intestine fate, Clinical: Fex CounterTrans
